Experimental data taken from patent US8178691B2.

Assay: solubility of 1,2,4-triazol-3-one in water and in formic acid (FIG. 1)
Details: solvents water and formic acid, as a function of temperature (FIG. 1)

O=C1N=CN=N1
solubility in formic acid compared with water: much more soluble in formic acid than it is in water
